Laboratory results taken from PubChem BioAssay AID504375 (National Center for Advancing Translational Sciences (NCATS), 2011).
The list shows a part of the results, in another mix than the full data. Records with an inconclusive call do not appear. Active and inactive are the calls of the source. Calls come from the whole dose curve; as a rule, active = well fitted inhibition curve with a large enough effect; inconclusive = small, poorly fitted or top-dose-only effect, or effect the other way; inactive = no such curve, though single readings can be large or run the other way.
% is set by controls: 0 for no effect and ±100 for the full control effect.

Amino acid sequences for entries named in this document (tags omitted).
UniProt Q01196, whole entry, looked up: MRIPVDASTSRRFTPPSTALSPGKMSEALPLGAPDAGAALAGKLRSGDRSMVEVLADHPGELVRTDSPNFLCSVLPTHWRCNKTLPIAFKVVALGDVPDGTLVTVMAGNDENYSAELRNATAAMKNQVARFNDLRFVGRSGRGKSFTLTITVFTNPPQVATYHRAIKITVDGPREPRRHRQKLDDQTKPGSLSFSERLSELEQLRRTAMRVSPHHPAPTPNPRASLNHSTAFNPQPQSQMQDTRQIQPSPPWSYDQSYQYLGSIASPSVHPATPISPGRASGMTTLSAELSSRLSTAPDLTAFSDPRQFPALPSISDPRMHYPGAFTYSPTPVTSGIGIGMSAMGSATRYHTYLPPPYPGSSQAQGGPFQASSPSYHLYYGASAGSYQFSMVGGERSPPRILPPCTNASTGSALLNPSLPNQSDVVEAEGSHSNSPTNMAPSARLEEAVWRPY
UniProt Q13951, whole entry, looked up: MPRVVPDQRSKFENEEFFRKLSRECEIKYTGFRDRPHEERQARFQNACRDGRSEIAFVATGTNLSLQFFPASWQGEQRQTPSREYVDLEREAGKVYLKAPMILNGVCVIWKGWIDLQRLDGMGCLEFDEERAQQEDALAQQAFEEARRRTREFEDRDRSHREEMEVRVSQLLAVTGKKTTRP

Each compound was assayed against Runt-related transcription factor 1 (Homo sapiens) + Core-binding factor subunit beta (Homo sapiens) (UniProt Q01196+Q13951) (assay: qHTS Assay for Compounds Blocking the Interaction Between CBF-beta and RUNX1 for the Treatment of Acute Myeloid Leukemia: Hit Validation with Orthogonal Assay). Conditions: CBFbeta-RUNX1 binding orthogonal assay, biochemical; at 41 µM (top of the series).
With `O=[As](O)(c1ccccc1)c1ccc(O)cc1` the activity change, negative = inhibition was inactive: 5.16%.
With `O=P(Nc1nc2ccc(Cl)cc2s1)(c1ccccc1)c1ccccc1` the activity change, negative = inhibition was inactive: 2.89%.
In the case of `O=[As](O)(c1ccc(O)cc1)c1ccccc1O`, the activity change, negative = inhibition is reported as inactive: 21.7%.
`COc1cc(I)ccc1[As](=O)(O)O` was tested, and the activity change, negative = inhibition was inactive: 3.28%.
`CCOC(=O)Nc1ccc([As](=O)(O)O)c(O)c1` was tested, and the activity change, negative = inhibition was inactive: -5.33%.
With `Nc1cccc([As](=O)(O)c2ccccc2)c1` the activity change, negative = inhibition was inactive: -4.82%.
`O=[As](O)(O)c1cccnc1` was tested, and the activity change, negative = inhibition was inactive: 19.9%.
For `Nc1ccccc1[As](=O)(O)c1ccccc1`, the activity change, negative = inhibition was inactive: 7.63%.
